Values of other authors as cited in US9597417B2, “Compositions and methods to evaluate hepatobiliary/gastrointestinal health, enterohepatic circulation, and drug interactions” (The United States of America as represented by the …, priority 2013, dated 2017).

Sequences of proteins named here, by UniProt entry; tags and fusion partners are left off.
UniProt Q14973, whole entry: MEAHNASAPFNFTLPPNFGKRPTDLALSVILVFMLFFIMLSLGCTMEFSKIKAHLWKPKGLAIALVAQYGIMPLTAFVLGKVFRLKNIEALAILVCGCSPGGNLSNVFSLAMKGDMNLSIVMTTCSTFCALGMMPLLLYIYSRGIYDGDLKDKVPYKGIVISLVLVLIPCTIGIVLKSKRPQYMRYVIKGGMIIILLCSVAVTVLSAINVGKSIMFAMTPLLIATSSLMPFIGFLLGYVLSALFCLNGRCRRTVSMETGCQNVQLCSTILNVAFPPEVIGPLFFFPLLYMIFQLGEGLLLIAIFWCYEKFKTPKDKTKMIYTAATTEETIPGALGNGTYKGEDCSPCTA
UniProt Q12908, whole entry: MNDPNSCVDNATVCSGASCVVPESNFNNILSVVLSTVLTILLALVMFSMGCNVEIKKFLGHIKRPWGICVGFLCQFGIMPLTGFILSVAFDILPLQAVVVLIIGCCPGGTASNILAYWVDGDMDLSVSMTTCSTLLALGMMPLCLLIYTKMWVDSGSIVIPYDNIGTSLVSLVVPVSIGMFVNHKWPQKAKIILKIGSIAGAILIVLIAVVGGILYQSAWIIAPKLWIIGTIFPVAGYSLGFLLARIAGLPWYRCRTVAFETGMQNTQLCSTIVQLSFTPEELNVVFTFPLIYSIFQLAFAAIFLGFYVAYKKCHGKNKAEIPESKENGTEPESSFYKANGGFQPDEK

How the values were obtained:
[1] = molecular target: human Na+/taurocholate cotransporting polypeptide (hNTCP) (Homo sapiens, UniProt Q14973); settings: read-out: NTCP Km; literature / historic data, same cell line; cited from earlier work
[2] = molecular target: human apical sodium dependent bile acid transporter (hASBT) (Homo sapiens, UniProt Q12908); settings: read-out: ASBT Km; literature / historic data, same cell line; cited from earlier work

Question: What does the source list for C[C@H](CCC(=O)N[C@@H](CCCCNC(=O)C(F)(F)F)C(=O)O)[C@H]1CC[C@H]2[C@@H]3[C@H](O)C[C@@H]4C[C@H](O)CC[C@]4(C)[C@H]3C[C@H](O)[C@]12C?
Answer: Km [1]: 8.99 µM; Km [2]: 39.4 µM
